Earlier results on one compound are cited in paper PMC10383573, “New Imadazopyrazines with CDK9 Inhibitory Activity as Anticancer and Antiviral: Synthesis, In Silico, and In Vitro Evaluation Approaches” (Pharmaceuticals, 2023).

Chains of the proteins cited; added tags and fusions are not shown.
UniProt P50750, whole entry: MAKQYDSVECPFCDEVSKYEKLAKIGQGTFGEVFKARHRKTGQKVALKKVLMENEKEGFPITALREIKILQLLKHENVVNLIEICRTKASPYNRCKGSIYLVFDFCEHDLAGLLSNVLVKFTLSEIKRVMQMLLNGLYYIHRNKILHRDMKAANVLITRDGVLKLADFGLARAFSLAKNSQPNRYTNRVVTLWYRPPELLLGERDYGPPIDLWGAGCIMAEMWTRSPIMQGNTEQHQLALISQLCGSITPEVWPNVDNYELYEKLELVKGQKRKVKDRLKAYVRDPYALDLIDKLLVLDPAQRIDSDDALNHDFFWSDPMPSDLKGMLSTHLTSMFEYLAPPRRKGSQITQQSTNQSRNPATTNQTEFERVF

The target in this series is CDK9 (Homo sapiens, UniProt P50750). Further details: purchased BPS Biosciences (San Diego, CA). The conditions noted are these: cited from earlier work.

What is called IC50 is the concentration that inhibits the measured activity by half. Turning to `Oc1ccc(-c2nc3cnccn3c2NCCc2ccccc2)cc1O` [Compound 1], the IC50 was 7.88 µM.
